According to US20070249648A1, “Novel Diazaspiroalkanes and Their Use for Treatment of Ccr8 Mediated Diseases” (priority 2003, published 2007):
pIC50: −log10 of the molar value. Where a name gives a salt, the structure may show the parent alone.

Protein sequences, listed by entry. Tags and fused reporters are not part of them.
UniProt P51685, whole entry: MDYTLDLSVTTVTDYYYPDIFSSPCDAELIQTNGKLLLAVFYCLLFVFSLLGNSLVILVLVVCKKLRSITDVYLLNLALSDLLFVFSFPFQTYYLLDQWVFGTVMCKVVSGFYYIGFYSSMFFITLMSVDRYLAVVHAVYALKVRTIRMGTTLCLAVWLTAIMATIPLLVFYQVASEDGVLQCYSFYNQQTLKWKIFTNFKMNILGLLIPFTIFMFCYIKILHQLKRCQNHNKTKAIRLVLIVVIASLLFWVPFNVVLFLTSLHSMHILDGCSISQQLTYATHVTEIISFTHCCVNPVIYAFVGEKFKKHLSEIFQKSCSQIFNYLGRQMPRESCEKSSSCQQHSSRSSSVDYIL

Molecular target: T1, human recombinant chemokine CCR8 receptor (Homo sapiens, UniProt P51685)
T1 construct: purchased Euroscreen ES-136-M; host or cells: CHO-K1 cells (membrane preparation)
Assay: CCL1 SPA Binding Assay
Method: Membranes from CHO-K1 cells transfected with human recombinant chemokine CCR8 receptor (ES-136-M) were purchased from Euroscreen. Membrane preparations are stored at −70C in 7.5 mM Tris-Cl pH 7.5, 12.5 mM MgCl2, 0.3 mM EDTA, 1 mM EGTA, 250 mM sucrose until used.
The CCR8 membranes ([…]) were preincubated with Wheat Germ Agglutinin SPA beads (4.05 mg/ml) in assay buffer (50 mM HEPES, 1 mM CaCl2x2H2O, 5 mM MgCl2x6H2O, 75 mM NaCl, 0.1% BSA) at pH=7.4 for 2 hours on ice. A 10-point dose-response curve (final concentrations 50 μM, 16.7 μM, 5.6 μM, 1.9 μM, 0.62 μM, 0.21 μM, 0.069 μM, 0.023 μM) was prepared by diluting compounds by serial dilution 1:3 in DMSO. In the screening plate (Polystyrene NBS plates, Costar Corning 3604) 1 μl from the DMSO solutions of compounds was transferred into each well. 1 μl of DMSO was added to the blank control wells and 1 μl unlabeled CCL1 (300 nM) was added to background control wells. 50 μl of the SPA bead-membrane mixture was added into each well. Finally, 50 μl (30 pM) ^125I CCL1 (2000 Ci/mM) was added to each well. Plates were then incubated at RT with shaking (700 rpm) for 90 minutes followed by 30 minutes at RT without shaking. The plate was read in a Wallac MicroBeta counter for 2 minutes/well.

Work on O=C(c1ccc(Cl)cc1)N1CCC2(CCN(Cc3ccccc3Oc3ccccc3)CC2)CC1 [3-(4-chlorobenzoyl)-9-(2-phenoxybenzyl)-3,9-diazaspiro[5.5]undecane trifluoroacetate] yielded a pIC50 of 7.09.
